Consider 1 molecule from patent US11767341B2, “Lincosamide antibiotics and uses thereof” (President and Fellows of Harvard College, priority 2017, dated 2023).

Experiment in all cases: MIC determination
What all share (type): cell-based

Assay [1] concerns S. aureus BAA-1556 (USA 300). Conditions: Staphylococcus aureus.
Assay [2] concerns S. aureus UNT96, NRS710, MP-618 (USA 100, Erythro >8). To be noted: Staphylococcus aureus.
Assay [3] has as its system S. aureus UNT-146, MP-620, TP 506 (ermA). Conditions: Staphylococcus aureus.
Assay [4] has as its system S. aureus UNT-120, MP-619, NRS22 (USA 600, GISA). Conditions: Staphylococcus aureus.
In assay [5] the test system is S. pneumoniae TP 1537 (ermB + mefA). Conditions: Streptococcus pneumoniae.
The subject of assay [6] is E. faecalis UNT-047 VRE. To be noted: Enterococcus faecalis.
The subject of assay [7] is K. pneumoniae IHMA 658692; KPC-2. To be noted: Klebsiella pneumoniae.
Assay [8] concerns K. pneumoniae UNT TEM-10. Conditions: Klebsiella pneumoniae, UNTTEM10.

Consider `CCC[C@@H]1C[C@@H](C(=O)N[C@@H]([C@H]2O[C@H](SC)[C@H](O)[C@@H](O)[C@H]2O)[C@H](C)Cl)N(C)C1` [Clindamycin, clindamycin, reference compound], for which the MIC (in general, the smallest concentration in the dilution series that meets the test's criterion for growth inhibition) in assay [1] is above 32 µg/mL; in assay [2], above 32 µg/mL; in assay [3] it was above 32 µg/mL; in assay [4], above 32 µg/mL; in assay [5], above 32 µg/mL; in assay [6], above 30 µg/mL. Further, the MIC in assay [7] and in assay [8] was above 32 µg/mL throughout.
